Hits are enriched below; roughly 0.91% of the tested compounds scored in any of these assays.
Yeast UUG start – modulators of start codon recognition fidelity in yeast; AID 602363; activity score, % at 18.7 µM; S. cerevisiae UUG-firefly luciferase reporter, luminescence/redox ratio; 0.13% of 350,000 active;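 active = replicate mean at a twofold rise or more, about +100% in these data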;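 note: firefly luciferase made from a UUG start codon reports start codon fidelity; reporter light over untreated wells divided by growth signal over untreated wells; some hits fall short of that in this replicate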
iPSC survival up – enhancers of human iPSC single-cell survival | actives 0.044% (n = 360,000) | hiPSC single-cell survival, ATPlite luminescence; 100% = ROCK inhibitor wells, 0% = DMSO | survival enhancement, % at 20 µM; in the data active = survival enhancement above about 18%;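 note: cells exposed to compounds for 16 hours before the ATP read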
C2C12 statin – suppression of simvastatin myotoxicity | rescue of ATP level, % at 7.49 µM | C2C12 myotubes + simvastatin, ATP luminescence, 48 h; scaled: DMSO 0, geranylgeraniol control 100 | actives 0.78% (n = 330,000) | AID 602340;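 active = mean ATP rescue above about 67%, or every replicate alone reaching that limit, limit read from the data, passing the limit was not always enough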;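 note: myotubes were challenged with 10 µM simvastatin during compound exposure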
PGC1a acetyl inh – lowers PGC1a acetylation signal in U2OS cells. AlphaScreen anti-acetyl-lysine; with virally co-expressed GCN5 acetyltransferase. inhibition, % at 15.6 µM. actives 0.17% (n = 350,000). AID 651687;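 active = every replicate shows inhibition of at least 40%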;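 note: 0% = neutral control wells and 100% = positive control wells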
FN deposition inh – fibronectin deposition inhibition; AH1F fibroblasts, Alexa488-fibronectin deposition fluorescence, overnight; inhibition, % at 12.6 µM; actives 0.086% (n = 350,000); AID 743247;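 active = mean inhibition across replicates of 30% or more, regardless of how many single replicates reach that level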;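 note: positive control wells lacked labelled fibronectin entirely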
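test system = AH1F fibroblasts assembling fluorescent fibronectin matrix | quantity = 10000 AH1F cells per well | buffer or medium = DMEM plus 2% serum, read in PBS | doses = single dose, pinned | incubation = 1 h cell attachment, overnight exposure to compound and label | detection = fluorescence at 485 nm excitation, 525 nm emission | read-out basis = inhibition from reduced deposited-fibronectin fluorescence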
* hit, by the source's call; . = not tested or not shown.

(1) O=C(O)C1C2CC3OC(=O)C1C3C2 (stereo unspecified)
(2) O=C(C[C@H]1CC[C@H]2[C@@H](COC[C@@H](O)CN2S(=O)(=O)c2ccc(Oc3ccccc3)cc2)O1)NCCN1CCCCC1
(3) COc1ccc(Oc2c(Cl)cnn(-c3ccc(C)cc3)c2=O)cc1
(4) COc1c(Cl)cnn(-c2ccc(C)cc2)c1=O
(5) CCCNC(=O)Nc1ccc2c(c1)C(=O)N(C)C[C@@H](OC)[C@H](C)CN(Cc1ccccn1)[C@@H](C)CO2
(6) C[C@@H](NC(=O)C[C@@H]1CC[C@H]2[C@@H](COc3ccc(NC(=O)C4CCOCC4)cc3C(=O)N2C)O1)c1ccccc1
(7) O=C1/C(=C/c2ccc(N3CCOCC3)o2)SC(=Nc2ccccc2)N1CCc1c[nH]c2ccccc12
(8) CCCCn1c(-c2ccc(F)c(F)c2)nc2cc3[nH]c(=O)c(C(C)C)nc3cc21

| entry no. | 1 | 2 | 3 | 4 | 5 | 6 | 7 | 8 |
| --- | --- | --- | --- | --- | --- | --- | --- | --- |
| Yeast UUG start | -14.9 | -7.0 | . | -19.1 | . | -18.5 | -22.4 | -14.0 |
| iPSC survival up | -0.8 | . | -6.1 | 26.9* | . | . | 19.1 | -2.6 |
| C2C12 statin | 4.3 | -3.2 | . | 19.3 | -20.0 | -26.3 | -169.3 | 13.4 |
| PGC1a acetyl inh | 61.8* | -2.7 | -8.5 | -6.9 | -14.1 | 31.4 | 61.7* | 8.7 |
| FN deposition inh | 3.1 | -1.6 | . | . | -12.4 | 6.0 | . | -8.6 |

(9) CCCCn1c(CCc2ccccc2)nc2cc3[nH]c(=O)c(C(C)C)nc3cc21
(10) COc1ccc(-n2cnc3cc(NCc4cccs4)ccc32)cc1
(11) C[C@@H]1CN([C@@H](C)CO)C(=O)c2cc(C#Cc3ccccn3)cnc2O[C@H]1CN(C)Cc1ccccc1
(12) O=C(C1CCC1)N1CCCc2cc(S(=O)(=O)N3CCN(c4ccccc4)CC3)ccc21
(13) CCCNC(=O)N1[C@H](CO)[C@H](c2ccccc2)[C@H]1CNC(=O)C1CCCC1
(14) COc1ccc(OC)c(-c2cc(C(=O)NCCCn3ccnc3)no2)c1
(15) COc1ccc(C(=O)NCCCn2ccnc2)cc1
(16) Cc1[nH]nc2ncc(C(=O)c3ccccc3O)cc12

| entry no. | 9 | 10 | 11 | 12 | 13 | 14 | 15 | 16 |
| --- | --- | --- | --- | --- | --- | --- | --- | --- |
| Yeast UUG start | -1.6 | -22.3 | -8.0 | -12.9 | . | . | 0.0 | -16.8 |
| iPSC survival up | -0.7 | 2.3 | . | -0.3 | . | 0.3 | -2.3 | -0.6 |
| C2C12 statin | 118.6* | 127.1* | 47.5 | 149.0* | . | 160.9* | -8.6 | -8.6 |
| PGC1a acetyl inh | 10.0 | 4.1 | -11.3 | -74.5 | -5.5 | -1.1 | 0.3 | 44.5* |
| FN deposition inh | -7.9 | . | -10.5 | 2.8 | -8.2 | . | 1.0 | 4.7 |

(17) Cc1nn(C)c2ncc(C(=O)c3ccccc3O)cc12
(18) C[C@@H]1CN([C@@H](C)CO)C(=O)c2cc(NC(=O)C3CCCCC3)ccc2O[C@@H](C)CCCCO[C@H]1CN(C)C(=O)CCCN(C)C
(19) CCN(CC)Cc1c(O)ccc2c([N+](=O)[O-])c(C)n(-c3ccc(OC)cc3)c12
(20) CCN(CC)Cc1c(O)ccc2occ(C(=O)c3ccc(OC)cc3)c12
(21) CCC(=O)N1Cc2cc(C(=O)N3CCN(C)CC3)nc(-c3cccc(-c4cccnc4)c3)c2[C@H]1CCO
(22) CC(C)NC(=O)Nc1ccc2c(c1)CC(=O)N([C@H](C)CO)C[C@@H](C)[C@H](CN(C)S(=O)(=O)c1cccs1)O2
(23) O=C(C[C@@H]1CC[C@H]2[C@@H](COC[C@@H](O)CN2Cc2ccc(F)cc2)O1)N1CCc2ccccc2C1
(24) C=C(C)COc1ccc2oc(C)c(C(=O)OCCOC)c2c1

| entry no. | 17 | 18 | 19 | 20 | 21 | 22 | 23 | 24 |
| --- | --- | --- | --- | --- | --- | --- | --- | --- |
| Yeast UUG start | -8.8 | 34.8 | 11.8 | -15.6 | . | 1.7 | 12.5 | -2.6 |
| iPSC survival up | 0.5 | . | -2.7 | 1.5 | . | . | . | 2.6 |
| C2C12 statin | -18.8 | . | -27.3 | -7.9 | . | -13.2 | 8.8 | 105.9* |
| PGC1a acetyl inh | 4.8 | -1.5 | 45.7* | -6.5 | -11.8 | 0.6 | -1.3 | 8.0 |
| FN deposition inh | 4.7 | . | . | . | 3.3 | -6.5 | -5.1 | -4.5 |

(25) c1ccc2c(CCNc3ncnc4nc[nH]c34)cccc2c1
(26) C[C@@]12CCC=C[C@H]1[C@H](c1ccc3ccccc3c1Br)N(Cc1ccccc1)C2=O
(27) CCOc1ccc(N(C)c2ccc(/C=C3/SC(=S)NC3=O)cc2)cc1
(28) CN(C)c1ccc(C=C2SC(=S)NC2=O)cc1
(29) N/C(=N\c1nc2ccccc2o1)NC(=O)c1ccc(F)cc1
(30) N/C(=N\c1nc2ccccc2o1)NC(=O)c1ccc(Cl)cc1
(31) O=C(CN1CCOCC1)NCC[C@@H]1CC[C@@H](NC(=O)Nc2ccccc2)[C@@H](CO)O1
(32) COc1ccc(NC(=O)C2CCCN2c2ccc(OC)c(OC)c2)cc1OC (stereo unspecified)

| entry no. | 25 | 26 | 27 | 28 | 29 | 30 | 31 | 32 |
| --- | --- | --- | --- | --- | --- | --- | --- | --- |
| Yeast UUG start | -25.1 | -20.4 | -3.7 | . | -7.5 | . | -1.9 | -16.9 |
| iPSC survival up | 0.6 | -2.6 | -0.5 | -2.9 | -2.0 | -2.1 | . | 3.4 |
| C2C12 statin | 85.8* | 77.7* | 26.3 | -1.1 | 83.0* | -35.2 | -1.0 | 80.2* |
| PGC1a acetyl inh | 1.1 | -6.2 | . | 51.2* | -14.4 | -2.3 | -2.5 | -13.7 |
| FN deposition inh | . | -3.8 | -2.3 | -6.7 | -15.3 | -19.7 | -7.7 | 11.4 |

(33) CCC(Sc1nc2n[nH]c(C)c2c(=N)n1-c1ccc(C)c(Cl)c1)C(=O)N1CCOCC1 (stereo unspecified)
(34) COc1ccccc1N1CCN(C(=O)C(=O)N/N=C/c2cccc(O)c2)CC1
(35) CCSc1ncc(/C=N/Nc2ccccc2)n1C
(36) Nn1c(SCC(=O)Nc2ccccc2F)nnc1-c1cccnc1
(37) Nn1c(SCC(=O)Nc2ccc(F)cc2F)nnc1-c1cccnc1
(38) Cc1noc(C)c1NC(=O)Nc1cccc2c1O[C@@H](CN(C)Cc1ccc(C(F)(F)F)cc1)[C@H](C)CN([C@@H](C)CO)C2=O
(39) CO[C@H]1CN(C)C(=O)c2cc(NS(C)(=O)=O)ccc2OC[C@@H](C)N(C(=O)C2CC2)C[C@@H]1C
(40) Cc1cc(C)n(CC(=O)N2c3ccccc3Sc3ccccc32)n1

| entry no. | 33 | 34 | 35 | 36 | 37 | 38 | 39 | 40 |
| --- | --- | --- | --- | --- | --- | --- | --- | --- |
| Yeast UUG start | -12.6 | -2.7 | -29.1 | -6.3 | -7.6 | 39.7 | 16.5 | -14.9 |
| iPSC survival up | -1.0 | -0.3 | -1.4 | 1.1 | -0.5 | . | . | 0.2 |
| C2C12 statin | 96.0* | 95.7* | 91.8* | 41.5 | 111.8* | -8.0 | -10.7 | 119.2* |
| PGC1a acetyl inh | 2.1 | 7.0 | 3.6 | 4.3 | 7.6 | -0.6 | 6.2 | -14.7 |
| FN deposition inh | . | -9.8 | . | -2.8 | -6.8 | . | -11.3 | -2.0 |

(41) Cc1cc(C)n(CC(=O)O)n1
(42) CO[C@H]1CN(C)C(=O)c2cc(NC(=O)C3CC3)ccc2OC[C@@H](C)N(C(=O)CN2CCOCC2)C[C@@H]1C
(43) O=C(NCC[C@@H]1CC[C@H](NC(=O)C2CCCCC2)[C@@H](CO)O1)c1ccc(F)cc1
(44) O=C(N/N=C/c1ccc([N+](=O)[O-])s1)c1cccnc1
(45) Cc1cccc(CS(=O)(=O)c2nnc([C@H](Cc3ccccc3)NC(=O)OC(C)(C)C)o2)c1
(46) COC(=O)CS(=O)(=O)c1nnc([C@H](Cc2ccccc2)NC(=O)OC(C)(C)C)o1
(47) Nc1nn(-c2ccccc2)nc1C(=O)OCc1ccccc1
(48) COc1ccc2c(c1)SCCC2=O

| entry no. | 41 | 42 | 43 | 44 | 45 | 46 | 47 | 48 |
| --- | --- | --- | --- | --- | --- | --- | --- | --- |
| Yeast UUG start | -23.7 | . | 4.0 | . | -4.0 | . | -8.0 | . |
| iPSC survival up | -0.2 | . | . | -2.7 | -0.4 | -4.4 | -0.2 | -2.0 |
| C2C12 statin | . | -0.5 | -1.3 | . | -121.5 | . | 1.8 | 17.8 |
| PGC1a acetyl inh | 6.6 | 8.8 | -5.2 | . | 59.8* | -5.2 | 72.5* | -5.9 |
| FN deposition inh | 1.3 | -1.7 | 5.3 | 2.5 | . | . | -0.3 | . |

Record cards, from the list above.
Nc1nn(-c2ccccc2)nc1C(=O)OCc1ccccc1 across the screens: Yeast UUG start = -8.0; iPSC survival up = -0.2; C2C12 statin = 1.8; PGC1a acetyl inh = 72.5*; FN deposition inh = -0.3
Cc1cccc(CS(=O)(=O)c2nnc([C@H](Cc3ccccc3)NC(=O)OC(C)(C)C)o2)c1 across the screens: Yeast UUG start = -4.0; iPSC survival up = -0.4; C2C12 statin = -121.5; PGC1a acetyl inh = 59.8*; FN deposition inh = .

Further records follow:
(49) COc1cc2c(cc1OC)C(=O)CCS2
(50) O=C1C(Cl)=C(NCCc2ccccc2)C(=O)N1CCc1ccccc1
(51) O=C1C(Cl)=C(NCCCN2CCOCC2)C(=O)N1CCc1ccccc1
(52) CCS(=O)(=O)N1CCC2(CC1)CN(C)[C@@H](CO)c1c2c2ccc(OC)cc2n1C

| entry no. | 49 | 50 | 51 | 52 |
| --- | --- | --- | --- | --- |
| Yeast UUG start | -12.1 | -4.7 | . | . |
| iPSC survival up | 1.3 | 1.4 | -0.2 | . |
| C2C12 statin | 124.7* | 163.9* | -29.0 | . |
| PGC1a acetyl inh | 7.6 | -5.7 | 2.6 | 4.5 |
| FN deposition inh | . | -0.7 | -0.3 | . |

Source: PubChem (several laboratories)
